Test results published in patent US20250353891A1 (MEDIMMUNE LIMITED, priority 2022, published 2025).

Assay: Pharmacokinetic profiling in non-human primate (i.v., s.c.)
Details: cynomolgus monkey, in vivo, 10 nmol/kg
Description: Selected test peptides (n=8) were profiled for pharmacokinetic (PK) properties in the mouse after single intravenous (i.v.) or subcutaneous (s.c.) dose. A subset (n=4) meeting the acceptance criteria was subsequently profiled in the dog (single i.v. dose) and non-human primate (single i.v. and s.c. dose). […] Low-binding plasticware containers were used during preparation and sample handling to avoid non-specific binding.
Non-human primate: PK was studied in non-naïve male cynomolgus monkeys. After dosing, PK samples were collected from the femoral vein. Blood of each sample was transferred into plastic micro centrifuge tubes containing EDTA-K2, inverted several times for proper mixing of contents and then placed on wet ice. […]
Samples analysis: Samples were analyzed by LC-MS/MS. Calibration standards were injected at the beginning and end of each batch and the determined concentration for each prepared standard was used to construct a calibration curve. Plasma and dose aliquot sample concentrations were determined from the plasma calibration curve.
Data analysis: Plasma concentration data was analyzed by non-compartmental analysis (NCA) using Phoenix Winnonlin v. […] Subcutaneous bioavailability was calculated as the ratio AUC(s.c.)0-inf/AUC(i.v.)0-inf. […]

SMILES: CC(C)C[C@H](NC(=O)[C@H](Cc1c[nH]c2ccccc12)NC(=O)[C@H](CCC(N)=O)NC(=O)[C@@H](NC(=O)[C@H](Cc1ccccc1)NC(=O)[C@H](CC(=O)O)NC(=O)[C@H](CCCNC(=N)N)NC(=O)[C@H](C)NC(=O)[C@H](CCCNC(=N)N)NC(=O)[C@H](CCCCNC(=O)COCCOCCNC(=O)COCCOCCNC(=O)CC[C@H](NC(=O)CCCCCCCCCCCCCCCCCCC(=O)O)C(=O)O)NC(=O)[C@@H](NC(=O)[C@H](CC(=O)O)NC(=O)[C@H](CC(C)C)NC(=O)[C@](C)(Cc1ccccc1)NC(=O)[C@H](CCCCN)NC(=O)[C@H](CO)NC(=O)[C@@H](NC(=O)[C@H](CC(=O)O)NC(=O)[C@H](CO)NC(=O)[C@@H](NC(=O)[C@H](Cc1ccccc1)NC(=O)[C@@H](NC(=O)CNC(=O)[C@H](CCC(N)=O)NC(=O)C(C)(C)NC(=O)[C@@H](N)Cc1c[nH]cn1)[C@@H](C)O)[C@@H](C)O)C(C)C)[C@@H](C)O)C(C)C)C(=O)N[C@@H](CC(C)C)C(=O)N[C@@H](CCC(=O)O)C(=O)NC(C)(C)C(=O)NCC(=O)O [Peptide 195, H-Aib-Q-G-T-F-T-S-D-V—S-K-αMePhe-L-D-T-K-R-A-R-D-F-V-Q-W-L-L-E-Aib-G-acid]
- bioavailability: 77%
